We go through one molecule from patent US7683063B2.

The chains behind the UniProt entries cited, without tags or fusion partners.
UniProt Q8NER1, whole entry: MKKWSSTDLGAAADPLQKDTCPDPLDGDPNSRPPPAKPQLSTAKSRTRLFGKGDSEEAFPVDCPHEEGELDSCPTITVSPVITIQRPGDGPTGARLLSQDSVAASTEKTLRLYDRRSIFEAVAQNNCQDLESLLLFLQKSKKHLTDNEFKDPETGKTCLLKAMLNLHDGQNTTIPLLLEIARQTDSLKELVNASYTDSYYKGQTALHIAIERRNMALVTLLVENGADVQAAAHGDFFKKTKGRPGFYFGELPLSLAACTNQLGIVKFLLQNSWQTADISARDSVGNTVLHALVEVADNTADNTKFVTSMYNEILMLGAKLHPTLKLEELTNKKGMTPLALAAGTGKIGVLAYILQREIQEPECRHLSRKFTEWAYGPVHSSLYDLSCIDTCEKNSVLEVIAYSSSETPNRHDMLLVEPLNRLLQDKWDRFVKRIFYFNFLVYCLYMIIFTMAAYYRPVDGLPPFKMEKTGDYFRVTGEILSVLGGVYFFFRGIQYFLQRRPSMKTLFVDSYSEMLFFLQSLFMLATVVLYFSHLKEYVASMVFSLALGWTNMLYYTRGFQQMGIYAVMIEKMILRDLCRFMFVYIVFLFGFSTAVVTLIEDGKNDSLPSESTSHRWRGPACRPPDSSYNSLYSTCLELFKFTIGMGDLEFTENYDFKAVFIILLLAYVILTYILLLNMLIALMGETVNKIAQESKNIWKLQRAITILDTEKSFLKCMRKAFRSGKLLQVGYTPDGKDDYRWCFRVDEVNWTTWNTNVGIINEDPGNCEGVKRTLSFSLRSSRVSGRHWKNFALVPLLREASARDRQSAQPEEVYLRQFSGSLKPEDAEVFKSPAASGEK

In test [1] the target is T1, human VR1 (Homo sapiens, UniProt Q8NER1). Put plainly: pH-based assay, calcium influx in VR1-expressing cells (FLIPR). As to conditions: HEK293-EcR cells induced with 5 μM PonA to express human VR1; Fluo-4; activation by agonist buffer giving pH 5.5; compound about 50 pM to about 3 μM. The protocol:
(§1) Human VR1 cloning. Human spinal cord RNA (commercially available from Clontech, Palo Alto, Calif.) was used. Reverse transcription was conducted on 1.0 μg total RNA using Thermoscript Reverse Transcriptase (commercially available from Invitrogen, Carlsbad, Calif.) and oligo dT primers as detailed in its product description. Reverse transcription reactions were incubated at 55° C. for 1 h, heat-inactivated at 85° C. for 5 min, and RNase H-treated at 37° C. for 20 min.
(§2) Human VR1 cDNA sequence was obtained by comparison of the human genomic sequence, prior to annotation, to the published rat sequence. Intron sequences were removed and flanking exonic sequences were joined to generate the hypothetical human cDNA. Primers flanking the coding region of human VR1 were designed as follows: forward primer, […]; and reverse primer, […].
(§3) PCR of VR1 was performed on one tenth of the Reverse transcription reaction mixture using Expand Long Template Polymerase and Expand Buffer 2 in a final volume of 50 μL according to the manufacturer's instructions (Roche Applied Sciences, Indianapolis, Ind.). […]
(§4) Generation of inducible cell lines. […] On the day of assay, cells were loaded with Fluo-4 (a calcium-sensitive dye that is commercially available from Molecular Probes, Eugene, Oreg.) and CAP-mediated calcium influx was measured using a FLIPR as described below. […]

The target in test [2] is T1, human VR1. Put plainly: Capsaicin-based assay, calcium influx in VR1-expressing cells (FLIPR). As to conditions: HEK293-EcR cells induced with 5 μM PonA to express human VR1; Fluo-4; activation by 50 μL of capsaicin (400 nM); compound about 50 pM to about 3 μM. As to the method:
as §1, §2, §3, §4

Broadly, the pIC50 is the negative decadic logarithm of the IC50, by convention in mol/L.

pIC50: −log10 of the molar value.

Consider `Cc1cccnc1N1CC=C(C(=O)Nc2ccc(C(C)C)cc2)CC1`, for which the values for the pIC50 in test [1] and in test [2] were 6.83 and 8.36, respectively.
